Target: anti-Fas monoclonal antibody HFE7A (produced by mouse-mouse hybridoma HFE7A, FERM BP-5828)
Assay: peptide (200 µg) preincubated with 0.25 µg HFE7A, binding to WR19L12a cells read by flow cytometry; D355-364 sample taken as 100% fluorescence

Row | inhibition of binding between HFE7A and WR19L12a cells | Substance
1 | 60% | P110 (from UniProt P25445 110-119) (peptide)
2 | 50% | P100 (from UniProt P25445 100-109) (peptide)

Reference: patent publication EP0909816A1
